Laboratory results from PubChem BioAssay AID624268 (The Scripps Research Institute Molecular Screening Center, 2012).
Only a part is listed here, and it is no random draw. Some tests of the compounds listed are not included; inactive here does not mean inactive elsewhere. Activity calls are given as the source filed them.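 How the source made its calls: active means inhibition above a per-plate cutoff of the control wells' mean inhibition plus 3 SD (cut at about 5.5% in these data); inactive means the rest.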

The compounds below were run on methionyl-tRNA synthetase (Trypanosoma brucei brucei) (assay: inhibition of trypanosome methionyl-tRNA synthetase – biochemical, luminescence, primary screen (AID 624268;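 further: 0% = DMSO wells median and 100% = median of wells with control inhibitor compound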)). Conditions: purified T. brucei MetRS, ATP depletion, Kinase-Glo luminescence; at 11.9 µM; stronger effect = higher value.
Outline: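 Test system: purified T. brucei MetRS enzyme. Also added: ATP, methionine and E. coli bulk tRNA substrates. Compound: 11.9 µM single point. Schedule: 15 min enzyme-compound preincubation, 2 h reaction, 10 min detection, 25 °C. Signal: luciferase luminescence of residual ATP, Kinase-Glo. Evaluation: percent inhibition versus plate control medians. Controls: DMSO wells, low control.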

| SMILES | inhibition |
| --- | --- |
| COc1ccc(Br)c(C(=O)NCC2(N3CCCCC3)CCCCC2)c1 | inactive: -0.4% |
| C=C(C)C#CC(O)(C(=O)OC1CCN(C)CC1)c1ccccc1 (stereo unspecified) | inactive: -0.19% |
| CN(C)c1cccc(C(=O)NCC2(N(C)C)CCCCC2)c1 | inactive: -1.11% |
| O=C(OCCN1CCCC1)C(O)(c1ccccc1)c1ccccc1 | inactive: -0.3% |
| CC(C)Oc1ccc(C(=O)NCC2(N(C)C)CCCCC2)cc1 | inactive: -0.38% |
| O=C(OC1CN2CCC1CC2)C(CO)(c1ccccc1)c1ccccc1 (stereo unspecified) | inactive: -1% |
| COc1ccc(Cl)cc1C(=O)NCC1(N(C)C)CCCCC1 | inactive: 0.06% |
| COc1cccc(C(=O)NCC2(N3CCCCC3)CCCCC2)c1 | inactive: -0.21% |
| O=C(NCC1(N2CCCCC2)CCCCC1)c1cccc(Cl)c1 | inactive: -0.89% |
| CN(C)C1(CNC(=O)c2ccc(Br)cc2)CCCCC1 | inactive: -0.32% |
| COc1cc(C(=O)NCC2(N(C)C)CCCCC2)c([N+](=O)[O-])cc1OC | inactive: -0.54% |
| O=C(NCC1(N2CCCCC2)CCCCC1)c1cc(F)c(F)cc1Cl | inactive: -0.33% |
| C=CCN1CCN(CCOC(=O)C(O)(c2ccccc2)c2ccccc2)CC1 | inactive: 0.27% |
| O=C(NCC1(N2CCCCC2)CCCCC1)c1cccc(Br)c1 | inactive: 0.28% |
| CCN1CCCC(OC(=O)C2(O)c3ccccc3C=Cc3ccccc32)C1 (stereo unspecified) | inactive: -0.96% |
| Cc1cc(C(=O)NCC2(N3CCCCC3)CCCCC2)ccc1[N+](=O)[O-] | inactive: -0.31% |
| COc1ccc(C(=O)NCC2(N(C)C)CCCCC2)cc1 | inactive: 1.27% |
| CN(C)c1ccc(C(=O)NCC2(N(C)C)CCCCC2)cc1 | inactive: -0.04% |
| CN(C)C1CCCC1OC(=O)C(O)(c1ccccc1)c1ccccc1 (stereo unspecified) | inactive: 0.45% |
| Cc1ccccc1C(=O)NCC1(N2CCCCC2)CCCCC1 | inactive: -0.07% |
| CC(C)N1C(=O)CC2(CCN(CCOC(=O)C(O)(c3ccccc3)c3ccccc3)CC2)C1=O | inactive: -0.77% |
| COc1cc(SC)ccc1C(=O)NCC1(N(C)C)CCCCC1 | inactive: -1.7% |
| CCN(CC)CC(C)C(C)OC(=O)C(O)(c1ccccc1)c1ccccc1 (stereo unspecified) | inactive: -0.14% |
| Cc1ccc(C(=O)NCC2(N3CCCCC3)CCCCC2)cc1 | inactive: -0.31% |
| O=C(NCC1(N2CCCCC2)CCCCC1)c1cc([N+](=O)[O-])ccc1Cl | inactive: -0.16% |
| CN1[C@@H]2CC[C@H]1CC(OC(=O)C(O)(c1ccccc1)c1ccccc1)C2 (stereo partly specified) | inactive: -0.51% |
